Calls of active or inactive are those of the source. The rule behind the calls is not given here.
Tests used:
Assay type in all cases: cell-based
[1] = target: Transient receptor potential cation channel subfamily A member 1 (Homo sapiens) (UniProt O75762); experiment: Agonist activity at human TRPA1 expressed in HEK293 cells assessed as increase in calcium flux by Fluo-8 NW dye based FLIPR TETRA method
[2] = target: Transient receptor potential cation channel subfamily V member 1 (Homo sapiens) (UniProt Q8NER1); experiment: Agonist activity at human TRPV1 stably expressed in CHOK1 cells assessed as increase in calcium flux by Fluo-8 NW dye based FLIPR TETRA method; conditions: CHO-K1
[3] = target: Sodium channel protein type 9 subunit alpha (Homo sapiens) (UniProt Q15858); experiment: Agonist activity at human Nav1.7 expressed in HEK293 cells assessed as increase in calcium flux by FLIPR dye based FLIPR TETRA method
[4] = target: Transient receptor potential cation channel subfamily A member 1 (Homo sapiens) (UniProt O75762); experiment: Antagonist activity at human TRPA1 expressed in HEK293 cells assessed as inhibition of AITC-induced increase in calcium flux by Fluo-8 NW dye based FLIPR TETRA method
[5] = target: Transient receptor potential cation channel subfamily V member 1 (Homo sapiens) (UniProt Q8NER1); experiment: Antagonist activity at human TRPV1 stably expressed in CHOK1 cells assessed as inhibition of capsaicin-induced increase in calcium flux by Fluo-8 NW dye based FLIPR TETRA method; conditions: CHO-K1
[6] = target: Sodium channel protein type 9 subunit alpha (Homo sapiens) (UniProt Q15858); experiment: Antagonist activity at human Nav1.7 expressed in HEK293 cells assessed as inhibition of veratridine-induced increase in calcium flux by FLIPR dye based FLIPR TETRA method

The chains behind the UniProt entries cited, without tags or fusion partners.
UniProt O75762, whole entry: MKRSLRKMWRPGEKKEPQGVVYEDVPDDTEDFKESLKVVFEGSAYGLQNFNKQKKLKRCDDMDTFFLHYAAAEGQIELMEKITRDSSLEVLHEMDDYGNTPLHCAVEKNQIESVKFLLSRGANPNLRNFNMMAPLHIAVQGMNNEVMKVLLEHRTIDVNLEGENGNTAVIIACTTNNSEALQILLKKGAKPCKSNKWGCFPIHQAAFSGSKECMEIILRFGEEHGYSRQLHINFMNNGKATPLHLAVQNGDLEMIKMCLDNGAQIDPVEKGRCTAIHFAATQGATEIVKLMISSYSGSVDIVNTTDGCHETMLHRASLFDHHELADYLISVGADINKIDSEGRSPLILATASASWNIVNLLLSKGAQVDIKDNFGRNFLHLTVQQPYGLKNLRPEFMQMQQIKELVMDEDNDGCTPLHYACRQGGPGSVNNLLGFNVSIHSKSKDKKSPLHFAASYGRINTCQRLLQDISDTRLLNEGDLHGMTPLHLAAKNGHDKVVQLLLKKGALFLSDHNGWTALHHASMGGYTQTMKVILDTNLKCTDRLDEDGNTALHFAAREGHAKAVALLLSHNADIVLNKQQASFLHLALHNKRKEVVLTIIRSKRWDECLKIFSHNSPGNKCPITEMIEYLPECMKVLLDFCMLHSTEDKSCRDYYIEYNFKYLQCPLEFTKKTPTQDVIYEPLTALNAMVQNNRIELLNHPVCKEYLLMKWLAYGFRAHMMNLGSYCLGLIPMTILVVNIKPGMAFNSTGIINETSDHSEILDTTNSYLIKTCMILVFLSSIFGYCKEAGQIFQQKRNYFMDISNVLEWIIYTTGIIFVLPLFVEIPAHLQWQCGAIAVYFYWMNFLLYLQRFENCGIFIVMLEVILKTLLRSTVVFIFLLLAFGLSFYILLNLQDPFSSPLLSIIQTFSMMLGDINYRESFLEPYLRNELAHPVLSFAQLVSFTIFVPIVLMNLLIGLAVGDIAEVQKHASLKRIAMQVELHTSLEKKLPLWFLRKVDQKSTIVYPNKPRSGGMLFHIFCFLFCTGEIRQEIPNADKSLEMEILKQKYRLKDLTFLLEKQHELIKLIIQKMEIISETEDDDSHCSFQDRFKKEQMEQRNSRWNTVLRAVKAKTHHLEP
UniProt Q8NER1, whole entry: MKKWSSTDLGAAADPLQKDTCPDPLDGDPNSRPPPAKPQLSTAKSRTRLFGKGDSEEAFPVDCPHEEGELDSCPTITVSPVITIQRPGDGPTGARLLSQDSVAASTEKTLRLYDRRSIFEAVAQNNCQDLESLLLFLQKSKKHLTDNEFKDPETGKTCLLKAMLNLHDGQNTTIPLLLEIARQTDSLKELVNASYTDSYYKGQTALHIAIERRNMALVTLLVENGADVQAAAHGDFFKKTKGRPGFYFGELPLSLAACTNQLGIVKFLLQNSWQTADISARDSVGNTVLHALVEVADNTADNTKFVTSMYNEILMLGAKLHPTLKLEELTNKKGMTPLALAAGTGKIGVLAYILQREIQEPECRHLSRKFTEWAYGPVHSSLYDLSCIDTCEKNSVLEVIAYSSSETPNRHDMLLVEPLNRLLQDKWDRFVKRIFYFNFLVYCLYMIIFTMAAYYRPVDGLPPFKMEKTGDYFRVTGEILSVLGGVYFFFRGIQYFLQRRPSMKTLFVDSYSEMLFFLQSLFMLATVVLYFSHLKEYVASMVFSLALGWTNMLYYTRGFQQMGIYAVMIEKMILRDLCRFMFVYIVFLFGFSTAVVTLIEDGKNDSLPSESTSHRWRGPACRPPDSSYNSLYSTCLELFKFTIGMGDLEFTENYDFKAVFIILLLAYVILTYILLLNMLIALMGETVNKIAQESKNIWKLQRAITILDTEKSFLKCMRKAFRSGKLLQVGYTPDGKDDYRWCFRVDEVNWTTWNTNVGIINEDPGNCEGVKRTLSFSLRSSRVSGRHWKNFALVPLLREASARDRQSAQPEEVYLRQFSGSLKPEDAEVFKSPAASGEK
UniProt Q15858, whole entry, looked up: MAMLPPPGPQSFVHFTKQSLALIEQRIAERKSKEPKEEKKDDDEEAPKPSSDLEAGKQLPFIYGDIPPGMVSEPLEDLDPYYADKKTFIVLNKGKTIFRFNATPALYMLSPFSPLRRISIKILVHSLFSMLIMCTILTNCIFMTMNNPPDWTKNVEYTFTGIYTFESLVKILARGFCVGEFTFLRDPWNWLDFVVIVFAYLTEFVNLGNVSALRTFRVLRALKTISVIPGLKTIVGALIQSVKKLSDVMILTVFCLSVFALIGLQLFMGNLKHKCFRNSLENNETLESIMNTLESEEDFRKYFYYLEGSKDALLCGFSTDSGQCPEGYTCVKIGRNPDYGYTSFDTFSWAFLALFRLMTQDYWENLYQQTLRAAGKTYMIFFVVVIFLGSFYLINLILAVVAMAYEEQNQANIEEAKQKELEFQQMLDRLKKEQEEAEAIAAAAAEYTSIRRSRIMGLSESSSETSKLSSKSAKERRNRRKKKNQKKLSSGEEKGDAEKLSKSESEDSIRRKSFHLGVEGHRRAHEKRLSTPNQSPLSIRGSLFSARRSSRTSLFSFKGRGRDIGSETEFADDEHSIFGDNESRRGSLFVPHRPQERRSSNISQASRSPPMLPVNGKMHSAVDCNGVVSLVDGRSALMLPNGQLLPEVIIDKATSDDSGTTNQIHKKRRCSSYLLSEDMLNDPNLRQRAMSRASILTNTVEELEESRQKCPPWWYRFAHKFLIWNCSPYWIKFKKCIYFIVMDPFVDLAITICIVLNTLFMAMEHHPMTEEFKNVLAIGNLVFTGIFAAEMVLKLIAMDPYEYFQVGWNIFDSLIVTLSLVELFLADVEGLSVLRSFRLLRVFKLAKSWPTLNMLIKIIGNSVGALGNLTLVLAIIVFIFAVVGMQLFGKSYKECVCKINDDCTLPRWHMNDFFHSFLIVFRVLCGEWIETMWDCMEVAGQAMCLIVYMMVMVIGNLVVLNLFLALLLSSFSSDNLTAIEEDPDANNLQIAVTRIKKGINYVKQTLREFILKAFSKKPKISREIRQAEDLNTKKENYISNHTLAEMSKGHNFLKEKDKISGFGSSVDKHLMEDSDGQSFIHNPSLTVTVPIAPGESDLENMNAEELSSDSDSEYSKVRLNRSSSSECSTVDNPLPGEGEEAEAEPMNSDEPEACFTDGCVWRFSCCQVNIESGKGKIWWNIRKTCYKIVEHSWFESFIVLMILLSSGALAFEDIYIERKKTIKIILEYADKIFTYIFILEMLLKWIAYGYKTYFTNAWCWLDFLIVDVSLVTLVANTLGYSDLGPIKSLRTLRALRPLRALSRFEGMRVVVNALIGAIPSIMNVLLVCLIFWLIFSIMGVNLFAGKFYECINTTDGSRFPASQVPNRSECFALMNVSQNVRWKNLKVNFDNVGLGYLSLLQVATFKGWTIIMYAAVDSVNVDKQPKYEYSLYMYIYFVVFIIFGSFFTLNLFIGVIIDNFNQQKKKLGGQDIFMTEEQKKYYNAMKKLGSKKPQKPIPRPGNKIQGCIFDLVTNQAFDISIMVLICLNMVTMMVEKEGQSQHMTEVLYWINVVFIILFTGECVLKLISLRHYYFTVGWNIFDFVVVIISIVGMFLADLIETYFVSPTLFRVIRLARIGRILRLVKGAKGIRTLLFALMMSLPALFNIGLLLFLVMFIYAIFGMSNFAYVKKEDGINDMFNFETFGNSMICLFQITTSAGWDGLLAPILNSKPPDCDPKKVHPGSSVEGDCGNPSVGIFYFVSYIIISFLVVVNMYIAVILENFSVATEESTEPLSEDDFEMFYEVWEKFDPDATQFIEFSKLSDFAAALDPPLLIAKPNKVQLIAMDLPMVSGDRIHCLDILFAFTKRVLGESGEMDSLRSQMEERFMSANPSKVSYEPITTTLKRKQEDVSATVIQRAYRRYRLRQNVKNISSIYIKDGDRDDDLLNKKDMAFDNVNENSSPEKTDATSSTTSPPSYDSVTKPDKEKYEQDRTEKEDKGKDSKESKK

Row | Activity [1] | Activity [2] | Activity [3] | inhibition [4] | inhibition [5] | inhibition [6] | Structure (SMILES)
1 | Active | Active | Active | Active | Active | Active | COC(=O)CC[C@H]1N[C@H](C(=O)NCc2ccc(F)cc2)Cc2c1[nH]c1ccccc21
2 | Active | Active | Active | Active | Active | Active | O=C1[C@@H]2Cc3c([nH]c4ccccc34)[C@@H](c3ccc(Cl)cc3)N2C(=O)N1Cc1ccc(F)cc1

Continued, compound first:

Row | Structure (SMILES) | Activity [1] | Activity [2] | Activity [3] | inhibition [4] | inhibition [5] | inhibition [6]
3 | O=C1[C@@H]2Cc3c([nH]c4ccccc34)[C@H](c3ccc(F)cc3)N2C(=O)N1c1cccc(C(F)(F)F)c1 | Active | Active | Active | Active | Active | Active
4 | O=C(NCc1ccc(F)cc1)[C@@H]1Cc2c([nH]c3ccccc23)CN1 | Active | Active | Active | Active | Active | –
5 | O=C1N[C@H](Cc2ccccc2)C(=O)N2Cc3[nH]c4ccccc4c3C[C@@H]12 | Active | Active | Active | Active | Active | Active
6 | COC(=O)[C@@H]1Cc2c([nH]c3ccccc23)[C@@H](c2ccccc2)N1Cc1ccccc1 | Active | Active | Active | Active | Active | –

Source: ChEMBL document CHEMBL4622981, “Exploration of TRPM8 Binding Sites by β-Carboline-Based Antagonists and Their In Vitro Characterization and In Vivo Analgesic Activities” (J Med Chem, 2020)
